The entries are a selection whose mix differs from that of the whole data set. Active and inactive are the calls of the source. No stated cut-off is given here; in the data, active means activation mostly above about 9.5% (no sharp cut-off); inactive means mostly below about 7.6%.

By UniProt entry, the sequences of proteins in these tests, tags left out.
UniProt P47898, whole entry, looked up: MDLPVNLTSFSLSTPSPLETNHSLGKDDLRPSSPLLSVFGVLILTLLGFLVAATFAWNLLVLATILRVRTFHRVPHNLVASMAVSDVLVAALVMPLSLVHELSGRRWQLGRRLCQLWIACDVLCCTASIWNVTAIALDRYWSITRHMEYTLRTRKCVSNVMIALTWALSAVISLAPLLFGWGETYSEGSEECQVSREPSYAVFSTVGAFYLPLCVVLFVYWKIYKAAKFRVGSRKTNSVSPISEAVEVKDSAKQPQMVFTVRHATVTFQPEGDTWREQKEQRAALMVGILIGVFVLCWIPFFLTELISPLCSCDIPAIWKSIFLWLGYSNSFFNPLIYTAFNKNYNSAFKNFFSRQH

Among the data in PubChem BioAssay AID504692 (The Scripps Research Institute Molecular Screening Center, 2011) are activation values, retold here.

This test deals with 5-hydroxytryptamine receptor 5A (Homo sapiens) (UniProt P47898). Kind of test: HTR5A agonists in luminescence cell assay, primary screen, counter-screen for OPRM1-OPRD1 heterodimer agonist project, full-deck HTS (AID 504692).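 Further: 0% = cells with vehicle only and 100% = reference agonist.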 Particulars: cell-based, at 9.3 µM, active compounds read high. Background: Counterscreens check selectivity or assay interference.
`CCn1c(N)[n+](CC(=O)Nc2ccc(SC(F)F)cc2)c2ccccc21`: the activation is inactive: 4.26%.

In the case of `O=C(OC1CN2CCC1CC2)c1cccc(Cl)c1` (stereo not drawn), the activation was inactive: 3.61%.

Regarding `O=C(Cn1cnc2c(OCc3ccccc3)ncnc21)NCc1nc2ccccc2[nH]1`, the activation was inactive: -0.96%.

`CSCC[C@H](NC(=O)N1CCn2c1nc1ccccc12)C(=O)NCC1CCCO1` (stereo partly drawn): the activation is inactive: 1.64%.

`CC(O)c1nc2ccccc2n1CC(=O)Nc1ccc2c(c1)OCCO2` (stereo not drawn): the activation was inactive: 2.79%.

For `O=C(Cn1cnc2ccccc21)N/N=C/c1ccccn1`, the activation was inactive: -0.16%.

As to `CSc1ccccc1NC(=O)Cn1c(-c2cscn2)nc2ccccc21`, the activation was inactive: 0.09%.

`Cc1ccc(/C=N/NC(=O)Cn2cnc3c2c(=O)n(C)c(=O)n3C)s1`: the activation is inactive: -4.09%.

`CC(C)(C)NC(=O)Cn1c(Cl)nc2ccccc21`: the activation is inactive: 8.11%.

For `COc1ccc(N)c([N+](=O)[O-])c1[N+](=O)[O-]`, the activation is inactive: 1.38%.

On to `c1ccc2c(c1)nc(NCc1ccc3c(c1)OCO3)n2CCN1CCOCC1`, for which the activation is inactive: -7.4%.

For the compound `Cc1nnc(NC(=O)Cn2cnc3c2c(=O)n(C)c(=O)n3C)s1`, the activation was inactive: -1.9%.

Turning to `COC(=O)[C@H](CC(C)C)NC(=O)Cn1cnc2c(NCc3ccccc3)ncnc21`, the activation was inactive: 0.14%.

`O=C(Cn1cnc2ccccc21)Nc1ccc2c(c1)OCCCO2`: the activation is inactive: 8.51%.

Turning to `CCN(CC)CCn1c(=N)n(CC(=O)c2ccc(C)cc2)c2ccccc21`, the activation is inactive: -0.36%.

On to `O=P(Nc1ccccn1)(c1ccc(Br)cc1)c1ccc(Br)cc1`, for which the activation is inactive: 3.97%.

Regarding `CCC(=O)Nc1ccc(NC(=O)/C=C/c2ccc(Cl)cc2)cc1`, the activation was inactive: 0.24%.

Consider `NC(=O)Cn1c2[n+](c3ccccc31)CC(O)CS2` (stereo not drawn), for which the activation was inactive: -1.47%.

For the compound `O=C(CSc1nc2ccccc2n1CC(=O)N1CCCC1)N1CCN(C(=O)c2ccco2)CC1`, the activation was inactive: 1.21%.

In the case of `CC(O)CNc1nc2ccccc2n1CC(=O)NCC(F)(F)F` (stereo not drawn), the activation was inactive: 0.16%.

`C[C@H](NC(=O)N1CCn2c1nc1ccccc12)C(=O)NCCc1ccccc1`: the activation was inactive: -4.74%.

On to `CCN(CC)CCn1c(NCc2ccccn2)nc2ccccc21`, for which the activation is inactive: 2.48%.

In the case of `Cc1ccc(C(C(=O)NC2CCCCC2)N(Cc2ccco2)C(=O)Cn2cnc3ccccc32)cc1` (stereo not drawn), the activation was inactive: 1.77%.

For `CCN(CC)CCn1c(N)nc2ccccc21`, the activation is inactive: -5.09%.

`Cn1c(=O)n(CC(=O)Nc2cccnc2)c2ccccc21`: the activation is inactive: 3.62%.

For `N=c1n(CCN2CCCC2)c2ccccc2n1CC(O)c1ccco1` (stereo not drawn), the activation is inactive: -0.64%.

Consider `O=P(Nc1nc2ccccc2s1)(c1ccccc1)c1ccccc1`, for which the activation was inactive: -0.12%.

Turning to `Cn1c(=O)c2c(ncn2CC(=O)Nc2nc(-c3ccc(F)c(F)c3)cs2)n(C)c1=O`, the activation was inactive: -2.29%.

Consider `CC(C)N(C(=O)Cn1c(SCC(=O)NC2CC2)nc2ccccc21)C(C)C`, for which the activation is inactive: 1.15%.

For the compound `Cn1c(=O)c2c(ncn2CC(=O)N2CCOCC2)n(C)c1=O`, the activation was inactive: 8.93%.

As for `Cc1cc2ncn(C3CC(=O)N(Cc4ccc(N5CCCC5=O)cc4)C3=O)c2cc1C` (stereo not drawn), the activation is inactive: 1.63%.

For the compound `C[C@H]1OP(=O)(Oc2ccccc2)[C@H](O)[C@H](O)[C@H]1N=[N+]=[N-]` (stereo partly drawn), the activation was inactive: -2.2%.

As for `COc1ccccc1OCCSc1nc2ccccc2n1CC(N)=O`, the activation was inactive: 3.1%.

For `CCN(CC)CCn1c(NS(=O)(=O)c2ccc(Cl)cc2)nc2ccccc21`, the activation was inactive: 1.69%.

For the compound `COc1ccc(OC)c(C(=O)CSc2nc3ccccc3n2CC(=O)NC(C)(C)C)c1`, the activation is inactive: 9.63%.

With `O=c1oc2ccccc2c2c1ncn2CCN1CCOCC1`, the activation is inactive: -1.55%.

As for `Cc1ccc(Cn2nnnc2CN2CCC(n3nnc4ccccc43)CC2)cc1`, the activation was inactive: 6.52%.

`O=C(Cn1c2[n+](c3ccc(C(F)(F)F)cc31)CCCCC2)Nc1ccccc1`: the activation was inactive: 1.15%.

On to `Cc1nc2ccccc2n1CC(=O)NC1CCCC1`, for which the activation is inactive: -0.97%.

Take `CCOCN(C(=O)Cn1c(CO)nc2ccccc21)c1c(C)cccc1CC`: the activation is inactive: -4.66%.

As for `Cc1ccc(C(=O)Cn2c(=N)n(CCN3CCOCC3)c3ccccc32)cc1`, the activation was inactive: 1.63%.

Take `CSCC[C@H](NC(=O)N1CCn2c1nc1ccccc12)C(=O)NC1CC1`: the activation is inactive: 4.79%.

As to `O=C(NC1CCCCC1)C(c1ccccc1)N(Cc1ccco1)C(=O)Cn1cnc2ccccc21` (stereo not drawn), the activation is inactive: -1.56%.

Consider `CCOc1ccc(CNc2nc3ccccc3n2CCN2CCOCC2)cc1`, for which the activation is inactive: -2.3%.

As for `CCN(CC)c1ccc(NC(=O)Cn2c(C(C)NC(=O)c3ccc(C)cc3)nc3ccccc32)cc1` (stereo not drawn), the activation is inactive: -0.33%.

On to `O=S(=O)(c1ccccc1)c1nnn2c1nc(NC1CCN(Cc3ccccc3)CC1)c1cc(Cl)ccc12`, for which the activation was inactive: -2.37%.

Consider `COc1ccc(Cc2nnc(NC(=O)Cn3cnc4c3c(=O)n(C)c(=O)n4C)s2)cc1OC`, for which the activation is inactive: -1.31%.

For the compound `CCCn1c(=O)c2c(nc3n2CCN3Cc2ccco2)n(C)c1=O`, the activation is inactive: -0.02%.

Take `CSCC[C@H](NC(=O)N1CCn2c1nc1ccccc12)C(=O)NCc1ccc2c(c1)OCO2`: the activation was inactive: 0.13%.

Take `O=S(=O)(c1ccc(Cl)cc1)N1CCn2c1nc1ccccc12`: the activation was inactive: 6.1%.

As for `CC(/C=N/NC(=O)Cn1cnc2ccccc21)=C\c1ccccc1`, the activation was inactive: 5.62%.

`CCOC(=O)c1cccc(NC(=O)Cn2cnc3c2c(=O)n(C)c(=O)n3C)c1`: the activation is inactive: 1.52%.

As for `CC(=O)NC(C)c1nc2ccccc2n1CC(=O)NC(C)CCc1ccccc1` (stereo not drawn), the activation is inactive: -2.22%.

Consider `Cn1c(=O)c2c(nc(CN3CCN(C(c4ccccc4)c4ccccc4)CC3)n2CC(N)=O)n(C)c1=O`, for which the activation is inactive: 3.88%.

With `CCN1C(=O)CC(n2c(C)nc3ccccc32)C1=O` (stereo not drawn), the activation is inactive: 4.1%.

Regarding `CCc1cccc(C)c1NC(=O)CSc1nc2ccccc2n1CC(=O)N(C)C`, the activation was inactive: -3.49%.

As to `Cn1c(=O)[nH]c(=O)c2c1nc(N1CCCCCC1)n2CC(N)=O`, the activation was inactive: -2.63%.

Regarding `COc1ccc(-c2nn(-c3ccccc3)cc2C(=O)N2c3ccc(C)cc3C3CN(C)CCC32)cc1` (stereo not drawn), the activation is inactive: 0.47%.
